Source: patent US20260116921A1, “PEPTIDE INHIBITORS OF INTERLEUKIN-23 RECEPTOR AND THEIR USE TO TREAT INFLAMMATORY DISEASES” (priority 2018, published 2026)

Target: T1, IL-23R (Homo sapiens, UniProt Q5VWK5)
T1 sequence (Q5VWK5 24-629): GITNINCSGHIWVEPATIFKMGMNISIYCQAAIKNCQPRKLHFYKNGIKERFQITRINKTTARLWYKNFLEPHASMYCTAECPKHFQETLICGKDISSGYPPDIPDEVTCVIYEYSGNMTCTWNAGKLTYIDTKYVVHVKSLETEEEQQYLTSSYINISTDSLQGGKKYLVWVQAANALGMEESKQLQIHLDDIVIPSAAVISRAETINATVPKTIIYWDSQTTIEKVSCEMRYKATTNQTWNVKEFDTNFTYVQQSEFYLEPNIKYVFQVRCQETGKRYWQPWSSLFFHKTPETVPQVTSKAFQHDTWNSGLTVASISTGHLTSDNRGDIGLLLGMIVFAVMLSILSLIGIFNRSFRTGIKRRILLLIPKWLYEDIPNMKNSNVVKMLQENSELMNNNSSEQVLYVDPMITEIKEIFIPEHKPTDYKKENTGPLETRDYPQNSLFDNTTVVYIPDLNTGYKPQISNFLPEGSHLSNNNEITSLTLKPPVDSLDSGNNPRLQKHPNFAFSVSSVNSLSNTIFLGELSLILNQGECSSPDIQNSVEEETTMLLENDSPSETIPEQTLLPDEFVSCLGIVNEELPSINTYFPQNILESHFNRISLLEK
Test: DB cells IL23R pSTAT3 cell assay (pStat3 HTRF)
Assay type: cell-based
Source text: Human ELISA indicates the IL23-IL23R competitive binding assay described below, Rat ELISA indicates the rat IL-23R competitive binding ELISA assay described below, and pStat3HTRF indicates the DB cells IL-23R pSTAT3 cell assay described below. The peptides depicted in Table E1 are cyclized via a disulfide bridge formed between two Pen residues in these peptides. The peptides depicted in Table E2 are cyclized via a thioether bond between the indicated amino acid residues. Table E2 provides an illustrative structure depicting thioether cyclization, which is indicated in the table by the term “cyclo,” with the cyclic region bracketed immediately following the term “cyclo.” For certain peptides, the residue Abu is present where indicated, whereas in other embodiments, e.g., those related to the non-cyclized form, the Abu may be referred to as a hSer(Cl) or homoSer residue.
DB Cells IL23R pSTAT3 Cell Assay
IL-23 plays a central role in supporting and maintaining Th17 differentiation in vivo. […] Changes in phospho-STAT3 levels in the cell lysates were detected using the Cisbio HTRF pSTAT3 (Tyr705) Cellular Assay Kit (Cisbio #62AT3PEH), according to manufacturer's Two Plate Assay protocol.

CC(=O)NCCCC[C@@H]1NC(=O)[C@H](Cc2c[nH]c3c(C)cccc23)NC(=O)[C@H]([C@@H](C)O)NC(=O)[C@H](CC(N)=O)NC(=O)[C@@H](NC(C)=O)C(C)(C)SSC(C)(C)[C@@H](C(=O)N[C@@H](Cc2ccc(OCCN)cc2)C(=O)N[C@@H](Cc2ccc3ccccc3c2)C(=O)N[C@@](C)(CCCCN)C(=O)N[C@@H](CCCCNC(C)=O)C(=O)N[C@@H](CC(N)=O)C(=O)N[C@@H](Cc2c[nH]cn2)C(N)=O)NC1=O [compound 248]
IC50: < 1 nM
